Patent US12564559B2, “Combinations of LSD1 inhibitors for use in the treatment of solid tumors” (Oryzon Genomics, S.A., priority 2016, dated 2026)

System: SCLC and NSCLC cell lines
Assay: Synergy Score (Loewe additivity, ATPLite growth inhibition) of combinations with the LSD1 inhibitor, Example 2 / Table 4
Settings: 2nd API combined with (trans)-N1-((1R,2S)-2-phenylcyclopropyl)cyclohexane-1,4-diamine; for Synergy Scores in NSCLC A549: NSCLC cell line A549; for Synergy Scores in NSCLC CAL-12T: NSCLC cell line CAL-12T; for Synergy Scores in NSCLC NCI-H441: NSCLC cell line NCI-H441; for Synergy Scores in SCLC NCI-H187: SCLC cell line NCI-H187; for Synergy Scores in SCLC NCI-H446: SCLC cell line NCI-H446; for Synergy Scores in SCLC NCI-H510: SCLC cell line NCI-H510; for Synergy Scores in SCLC NCI-H1048: SCLC cell line NCI-H1048; for Synergy Scores in SCLC NCI-H1417: SCLC cell line NCI-H1417; for Synergy Scores in SCLC NCI-H1876: SCLC cell line NCI-H1876; for Synergy Scores in SCLC SBC-5: SCLC cell line SBC-5

Compound | Synergy Scores in NSCLC A549 | Synergy Scores in NSCLC CAL-12T | Synergy Scores in NSCLC NCI-H441 | Synergy Scores in SCLC NCI-H187 | Synergy Scores in SCLC NCI-H446 | Synergy Scores in SCLC NCI-H510 | Synergy Scores in SCLC NCI-H1048 | Synergy Scores in SCLC NCI-H1417 | Synergy Scores in SCLC NCI-H1876 | Synergy Scores in SCLC SBC-5
CCN1CCN(c2ccc(Nc3cc(N(C)C(=O)Nc4c(Cl)c(OC)cc(OC)c4Cl)ncn3)cc2)CC1 [BGJ398, 3-(2,6-dichloro-3,5-dimethoxyphenyl)-1-(6-((4-(4-ethylpiperazin-1-yl)phenyl)amino)pyrimidin-4-yl)-1-methylurea] | 0.16 | 0.49 | 0.17 | 9.26 | 17.33 | 4.42 | 9.55 | 9.66 | 19.85 | 0.69
O=C(/C=C/c1cccc(S(=O)(=O)Nc2ccccc2)c1)NO [Belinostat, (22E)-N-Hydroxy-3-[3-(phenylsulfamoyl)phenyl]prop-2-enamide] | 0.52 | 0.42 | 0.66 | 14.35 | 3.21 | 15.72 | 1.61 | 19.12 | 9.05 | 1.84
O=C(NC(NC(=S)Nc1ccc(F)c([N+](=O)[O-])c1)C(Cl)(Cl)Cl)C(c1ccccc1)c1ccccc1 (stereo not drawn) [CGK 733, α-Phenyl-N-[2,2,2-trichloro-1-[[[(4-fluoro-3-nitrophenyl)amino]thioxomethyl]amino]ethyl]benzeneacetamide] | 3.07 | 0.39 | 0.27 | 3.35 | 5.16 | 3.03 | 1.21 | 0.91 | 4.59 | 0.78
N.N.[Cl][Pt][Cl] [Cisplatin, (SP-4-2)-diamminedichloroplatinum(II)] | 0.04 |  |  | 4.91 |  | 9.89 |  | 15.96 | 5.34 | 
COc1cccc2c1C(=O)c1c(O)c3c(c(O)c1C2=O)C[C@@](O)(C(=O)CO)C[C@@H]3O[C@H]1C[C@H](N)[C@H](O)[C@H](C)O1 [Doxorubicin, (7S,9S)-7-[(2R,4S,5S,6S)-4-amino-5-hydroxy-6-methyloxan-2-yl]oxy-6,9,11-trihydroxy-9-(2-hydroxyacetyl)-4-methoxy-8,10-dihydro-7H-tetracene-5,12-dione] | 0.45 |  | 6.86 | 6.85 | 4.93 | 15.96 | 3.13 | 33.43 | 3.74 | 
O=C(O)CCNc1cc(N2CCc3ccccc3CC2)nc(-c2ccccn2)n1 [GSK-J1, N-[2-(2-Pyridinyl)-6-(1,2,4,5-tetrahydro-3H-3-benzazepin-3-yl)-4-pyrimidinyl]-β-alanine] | 0.07 | 0.01 | 0.09 | 2.14 | 0.03 | 3.80 | 0.23 | 2.26 | 10.21 | 0.85
Nc1ccn([C@@H]2O[C@H](CO)[C@@H](O)C2(F)F)c(=O)n1 [Gemcitabine, 4-amino-1-(2-deoxy-2,2-difluoro-β-D-erythro-pentofuranosyl)pyrimidin-2(1H)-on] |  | 0.58 | 6.78 | 19.43 |  | 23.37 |  | 15.18 | 2.74 | 0.33
CCc1c2c(nc3ccc(OC(=O)N4CCC(N5CCCCC5)CC4)cc13)-c1cc3c(c(=O)n1C2)COC(=O)[C@]3(O)CC [Irinotecan, (S)-4,11-diethyl-3,4,12,14-tetrahydro-4-hydroxy-3,14-dioxo1H-pyrano[3′,4′:6,7]-indolizino[1,2-b]quinolin-9-yl-[1,4′bipiperidine]-1′-carboxylate] | 0.02 | 0.14 | 3.45 | 13.74 |  | 17.17 | 2.00 | 21.62 | 8.75 | 0.48
CC1=CC(=O)c2ccccc2C1=O [Menadione, 2-Methylnaphthalene-1,4-dione] | 0.06 | 0.01 | 0.02 | 3.89 | 0.06 | 3.63 | 0.45 | 4.18 | 8.81 | 0.52
COc1ccc(C2=N[C@@H](c3ccc(Cl)cc3)[C@@H](c3ccc(Cl)cc3)N2C(=O)N2CCNC(=O)C2)c(OC(C)C)c1 [Nutlin-3A, 2-Piperazinone,4-[[(4S,5R)-4,5-bis(4-chlorophenyl)-4,5-dihydro-2-[4-methoxy-2-(1-methylethoxy)phenyl]-1H-imidazol-1-yl]carbonyl]-] | 0.04 | 0.11 | 0.36 | 1.56 | 0.36 | 1.63 | 0.29 | 2.56 | 7.24 | 0.48
OCCn1cc(-c2cnc3nnn(Cc4ccc5ncccc5c4)c3n2)cn1 [PF-04217903, 4-[1-(6-quinolinylmethyl)-1H-l,2,3-triazolo[4,5-b]pyrazin-6-yl]-1H-pPyrazole-1-ethanol] | 0.07 | 0.15 | 0.16 | 0.99 | 0.01 | 1.11 | 0.56 | 0.81 | 6.68 | 0.49
LY-2603618 | 0.20 | 1.46 | 2.22 | 6.47 | 0.37 |  | 1.47 | 1.05 | 11.98 | 0.87
